# Earlier results as cited in US11492413B2, “Switchable antibody conjugate” (Temple University—Of The Commonwealth System of Higher …, priority 2017, dated 2022).
# Test system: Her2-positive breast cancer cell line SK-BR-3
# Conditions: SK-BR-3, comparison with most potent mixture; read-out: EC50 of previously reported conjugate; cited from earlier work
substance,measurement,value
Herceptin-MMAF conjugate,EC50,0.9 ± 0.2 nM
